Reference: US20090209474A1, “NOVEL USES FOR DRUGS TARGETING GLUTAMINE SYNTHETASE” (NEWTHERA, priority 2005, published 2009)

System: C6 glioblastoma cells
Details: tianeptine 0.25 nM

CS(=N)(=O)CC[C@H](N)C(=O)O (stereo partly drawn) [MS, 2-amino-4-(S-methylsulfonimidosyl)butanoic acid]
decreased total apoptosis: total apoptosis induced by NH4Cl 10 mM plus glutamate 50 mM (24 h, MS 0.25 μM) | total apoptosis induced by L-glutamate 50 mM (24 h, MS […]) | total apoptosis induced by NH4Cl 10 mM (72 h, MS […])
